Reference: patent publication US8049006B2, “7-membered ring compound and method of production and pharmaceutical application thereof” (Daiichi Sankyo Company, Limited, priority 2006, dated 2011)

System: C3H/HeN mice
Conditions: 10 mg/kg orally once a day, 24 hours after DNFB application at fifth week, female C3H/HeN mice

CC[C@@H](NC(=O)N1CC(=O)NC[C@@H](Cc2cc(Cl)ccc2OC)C1=O)c1ccc(C(=O)O)c(N)c1 [2-amino-4-[(1R)-1-({[(6R)-6-(5-chloro-2-methoxybenzyl)-3,7-dioxo-1,4-diazepan-1-yl]carbonyl}amino)propyl]benzoic Acid]
inhibition rate of the skin reaction: 20.0%

CC[C@@H](NC(=O)N1CC(=O)NC[C@H](Cc2cc(Cl)ccc2OC)C1=O)c1ccc(C(=O)O)c(N)c1 [Compound 150, 2-amino-4-[(1R)-1-({[(6S)-6-(5-chloro-2-methoxybenzyl)-3,7-dioxo-1,4-diazepan-1-yl]carbonyl}amino)propyl]benzoic Acid]
inhibition rate of the skin reaction (listed as compound 150): 29.9%

CC[C@@H](NC(=O)N1CC(=O)NC[C@H](Cc2cc(Cl)ccc2OC)C1=O)c1ccc(C(=O)O)c(N)c1 [Compound 179B, 2-amino-4-[(1R)-1-({[(6S)-6-(5-chloro-2-methoxybenzyl)-3,7-dioxo-1,4-diazepan-1-yl]carbonyl}amino)propyl]benzoic Acid Monoacetic Acid Solvate]
inhibition rate of the skin reaction (listed as compound 179B): 32.8%

Read-outs that look alike come from different tables or passages of the source.
